From patent publication US10550118B2, “JAK inhibitors containing a 4-membered heterocyclic amide” (THERAVANCE BIOPHARMA R&D IP, LLC, priority 2017, dated 2020)

System: IL-13 induced pSTAT6 in lung tissue
Test: Murine model of IL-13 induced pSTAT6 induction in lung tissue
Details: mouse, 1 mg/mL 50 μL oral aspiration; IL-13 challenge 4 h post dose; lungs at 5 hours

Structure (SMILES) | pSTAT6 inhibition Assay 4
CCCN1Cc2[nH]c(-c3n[nH]c4cc(-c5cc(F)c(O)cc5CC)ccc34)nc2CC1C(=O)N1CC(N(C)C)C1 (centres unmarked) | B (B represents between 40% and 60% inhibition)
CCCN1Cc2[nH]c(-c3n[nH]c4cc(-c5cc(F)c(O)cc5CC)ccc34)nc2C[C@@H]1C(=O)N1CC(N(C)C)C1 | B (B represents between 40% and 60% inhibition)
